Measurements from paper PMC8563902, “N^1-methyladenosine methylation in tRNA drives liver tumourigenesis by regulating cholesterol metabolism” (Nature Communications, 2021).

By UniProt entry, the sequences of proteins in these tests, tags left out. Where a name states a change or a piece, a line headed by the entry shows the natural chain unless it says otherwise. Residues count along the entry.
UniProt Q96FX7, 2-289: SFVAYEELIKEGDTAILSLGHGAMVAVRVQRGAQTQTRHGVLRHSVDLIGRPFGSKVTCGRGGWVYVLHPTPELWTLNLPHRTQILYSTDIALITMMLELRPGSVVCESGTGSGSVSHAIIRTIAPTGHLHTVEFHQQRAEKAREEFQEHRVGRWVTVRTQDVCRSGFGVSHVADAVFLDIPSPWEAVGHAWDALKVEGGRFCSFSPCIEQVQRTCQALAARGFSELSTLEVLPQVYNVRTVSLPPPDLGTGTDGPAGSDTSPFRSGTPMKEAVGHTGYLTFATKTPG
UniProt Q9UJA5: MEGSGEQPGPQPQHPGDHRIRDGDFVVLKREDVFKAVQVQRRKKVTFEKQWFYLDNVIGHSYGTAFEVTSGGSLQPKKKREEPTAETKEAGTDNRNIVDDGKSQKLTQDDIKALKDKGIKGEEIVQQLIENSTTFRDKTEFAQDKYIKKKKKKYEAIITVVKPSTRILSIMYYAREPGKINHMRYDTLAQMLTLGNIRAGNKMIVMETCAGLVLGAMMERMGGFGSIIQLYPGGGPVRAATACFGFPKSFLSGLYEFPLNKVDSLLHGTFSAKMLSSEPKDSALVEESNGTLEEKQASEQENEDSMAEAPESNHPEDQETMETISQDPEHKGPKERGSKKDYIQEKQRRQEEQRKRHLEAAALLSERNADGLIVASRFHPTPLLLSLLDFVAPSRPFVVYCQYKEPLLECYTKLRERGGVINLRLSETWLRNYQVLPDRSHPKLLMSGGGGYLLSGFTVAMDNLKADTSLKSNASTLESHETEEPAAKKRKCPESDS

Target: TRMT6/TRMT61A complex (Homo sapiens, UniProt Q96FX7+Q9UJA5)
Assay: screen for block of TRMT6/TRMT61A interaction in vitro; m1A by LC-MS/MS in treated PLC/PRF/[…] cells
Conditions: blocks subunit interaction (method not described); m1A read in cells treated at the proliferation IC50

Compound: C[CH2][Hg][S]c1ccccc1C(=O)O [thimerosal]
- screen for block of TRMT6/TRMT61A interaction in vitro; m1A by LC-MS/MS in treat: candidate inhibitors against the interaction of TRMT6 and TRMT61A
